This is an account of results in patent publication US20230241060A1, “GLUCOCORTICOID-SPARING AGENT” (METRIOPHARM AG, priority 2020, published 2023).

The series is described as follows: Body weight in pilot study of collagen induced arthritis (CIA) in mice. The settings on record: MP1032 1 mg/kg/day alone, intraperitoneally.

`Nc1cccc2c(=O)[nH][nH]c(=O)c12.[Na]`: the “Body weight on day 45, arithmetic mean ± standard deviation” value is 22.8 ± 1.68 g.
